Experimental data reported in PMC12297955, “Comparative Study: Biguanide-, Sulfonamide-, and Natural Agent-Based Interventions in an In Vivo Experimental Diabetes Model” (Medicina, 2025).

Details: rat, in vivo, po

Substance: N-(diaminomethylene)-4-methylbenzenesulfonamide
- Volume of distribution at steady state (Vd): 23.92 ± 8.40 L
